Literature values as cited in paper PMC10385865, “Synthesis and Anticancer Activity of Novel Dual Inhibitors of Human Protein Kinases CK2 and PIM-1” (Pharmaceutics, 2023).

Molecular target: CK2
Design: method as in PMID 33807474
Settings: Figure 1, representative CK2 inhibitors; cited from earlier work

For CN(C)c1nc2c(Br)c(Br)c(Br)c(Br)c2[nH]1 [Compound 4, 4,5,6,7-Tetrabromo-N,N-dimethyl-1H-benzimidazol-2-amine, reference compound], the Ki is given as 40 nM.
